{"source": "patent US20150010917A1", "about": "“METHOD TO IDENTIFY LIGANDS FOR SIGMA-1 RECEPTORS” (LABORATORIOS DEL DR. ESTEVE S.A., priority 2012, published 2015)", "molecular_target": "T1, σ1^spCFP/YFP construct expressed in HEK-293 cells (Homo sapiens, UniProt Q99720)", "T1 construct": "PTHR (PTH1R) signal peptide (N); expressed in transfected cells; host or cells: HEK-293 (stably transfected, G418 selected)", "experiment": "Single-cell real-time intramolecular FRET (iFRET) of the σ1 receptor FRET sensor", "format": "cell-based", "conditions": "100 μM, single HEK-293 cell, FIG. 3", "method": "In the single cell real time intramolecular-FRET approach both donor (i.e. CFP) and acceptor (i.e. YFP) are located in the same molecule, as designed for the σ1^CFP/YFP and the σ1^spCFP/YFP constructs (FIG. 1A). In brief, HEK cells permanently expressing the corresponding σ1 receptor FRET sensor were seeded in poly-D-Lysine coated coverslips and allow growing overnight. Then, the coverslips with transfected cells were mounted in an Attofluor holder and placed on an inverted Axio Observer microscope (Zeiss, Jena, Germany) equipped with a 63× oil immersion objective and a dual-emission photometry system (Till Photonics, Gräfelfing, Germany). The extracellular buffer was Hank's Balanced Salt Solution (HBSS), containing (in mM): 137 NaCl, 0.34 Na2HPO4, […], 0.44 KH2PO4, 0.5 MgCl2, 0.4 Mg2SO4, 1.26 CaCl2, 10 HEPES, 2 D-glucose and 1 ascorbic acid (pH 7.4 with NaOH).\nA Polychrome V (Till Photonics) was used as the light source. The sample was illuminated with excitation light at 436±10 nm (beam splitter dichroic long-pass; DCLP 460 nm). Excitation time was 10 ms at 10 Hz, in order to limit photobleaching. Emission light intensities were determined at 535±15 and 480±20 nm (DCLP 505 nm). No corrections for spillover between channels or direct YFP excitation were made.\nSingle cells were selected for recording based on their σ1 expression as judged by its fluorescence. […]"}
{"substance": "(+)-SKF-10,047", "values": [{"measurement": "change in the FRET signal of the σ1^spCFP/YFP", "result": "decrease"}]}
